We go through 1 substance from publication PMC10912764.

Sequences of proteins named here, by UniProt entry; tags and fusion partners are left off. Residues count along the entry.
UniProt P28307, 21-151: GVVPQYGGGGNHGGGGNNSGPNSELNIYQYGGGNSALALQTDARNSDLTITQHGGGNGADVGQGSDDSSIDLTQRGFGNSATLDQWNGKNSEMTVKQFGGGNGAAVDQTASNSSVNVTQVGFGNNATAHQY

Assay [1] concerns the target E. coli CsgA protein with a C-terminal 6× His tag (E. coli) (UniProt P28307).
Assay [2] has the same target. The source holds these as a separate data set.

As to “amyloid-β peptide Aβ (1–42) (from UniProt P05067 672-713)”, the decrease in curli formation in E. coli UTI89 biofilms (ThT signal) grown with 7.5 µM α-sheet oligomeric Aβ in assay [1] was 50%. The decrease in cell and biofilm density (OD600) of UTI89 biofilms grown with 7.5 µM oligomeric Aβ in assay [2] came out at 47%.
